Measurements from patent US20260384438A1, “PYRROLOPYRIMIDINE CARBOXAMIDES” (published 2026).

Amino acid sequences for entries named in this document (tags omitted).
UniProt O43683, whole entry: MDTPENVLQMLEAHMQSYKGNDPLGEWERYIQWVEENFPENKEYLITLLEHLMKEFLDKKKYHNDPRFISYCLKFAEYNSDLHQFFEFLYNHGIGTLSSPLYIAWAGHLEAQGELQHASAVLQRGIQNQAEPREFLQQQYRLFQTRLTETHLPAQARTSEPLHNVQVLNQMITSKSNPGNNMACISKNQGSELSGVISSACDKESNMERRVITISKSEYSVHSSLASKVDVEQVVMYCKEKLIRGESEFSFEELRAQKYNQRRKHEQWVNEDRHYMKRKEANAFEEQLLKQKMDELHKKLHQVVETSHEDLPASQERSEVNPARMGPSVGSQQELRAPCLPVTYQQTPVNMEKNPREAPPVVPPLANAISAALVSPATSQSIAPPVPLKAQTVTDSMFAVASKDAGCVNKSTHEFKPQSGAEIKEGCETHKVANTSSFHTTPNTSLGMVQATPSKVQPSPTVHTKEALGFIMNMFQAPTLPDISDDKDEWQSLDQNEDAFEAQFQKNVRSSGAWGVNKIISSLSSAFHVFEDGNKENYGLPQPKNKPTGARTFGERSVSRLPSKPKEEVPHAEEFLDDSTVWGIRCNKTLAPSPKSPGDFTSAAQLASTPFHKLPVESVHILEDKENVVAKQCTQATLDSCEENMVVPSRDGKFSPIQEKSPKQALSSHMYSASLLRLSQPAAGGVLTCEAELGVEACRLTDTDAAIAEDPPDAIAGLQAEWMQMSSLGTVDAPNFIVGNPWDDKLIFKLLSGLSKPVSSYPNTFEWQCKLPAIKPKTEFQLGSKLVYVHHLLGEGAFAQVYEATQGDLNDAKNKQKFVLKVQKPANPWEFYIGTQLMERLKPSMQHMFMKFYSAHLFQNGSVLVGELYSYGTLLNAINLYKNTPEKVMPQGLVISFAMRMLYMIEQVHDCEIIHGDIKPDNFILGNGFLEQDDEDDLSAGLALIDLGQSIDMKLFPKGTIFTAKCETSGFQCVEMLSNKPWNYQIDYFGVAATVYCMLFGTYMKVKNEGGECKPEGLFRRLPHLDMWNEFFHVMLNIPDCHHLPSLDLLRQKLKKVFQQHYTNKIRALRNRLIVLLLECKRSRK
UniProt P50750, whole entry: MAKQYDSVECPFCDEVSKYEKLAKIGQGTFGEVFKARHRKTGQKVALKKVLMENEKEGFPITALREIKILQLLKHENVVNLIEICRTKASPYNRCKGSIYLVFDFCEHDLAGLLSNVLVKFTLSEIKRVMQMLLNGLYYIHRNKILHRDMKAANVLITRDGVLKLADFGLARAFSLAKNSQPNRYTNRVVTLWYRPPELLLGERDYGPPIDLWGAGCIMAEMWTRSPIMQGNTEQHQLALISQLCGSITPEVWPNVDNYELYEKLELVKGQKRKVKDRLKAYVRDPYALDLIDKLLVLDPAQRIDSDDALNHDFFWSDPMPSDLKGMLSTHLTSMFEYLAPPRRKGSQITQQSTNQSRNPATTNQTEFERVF
UniProt Q9BQI3, whole entry: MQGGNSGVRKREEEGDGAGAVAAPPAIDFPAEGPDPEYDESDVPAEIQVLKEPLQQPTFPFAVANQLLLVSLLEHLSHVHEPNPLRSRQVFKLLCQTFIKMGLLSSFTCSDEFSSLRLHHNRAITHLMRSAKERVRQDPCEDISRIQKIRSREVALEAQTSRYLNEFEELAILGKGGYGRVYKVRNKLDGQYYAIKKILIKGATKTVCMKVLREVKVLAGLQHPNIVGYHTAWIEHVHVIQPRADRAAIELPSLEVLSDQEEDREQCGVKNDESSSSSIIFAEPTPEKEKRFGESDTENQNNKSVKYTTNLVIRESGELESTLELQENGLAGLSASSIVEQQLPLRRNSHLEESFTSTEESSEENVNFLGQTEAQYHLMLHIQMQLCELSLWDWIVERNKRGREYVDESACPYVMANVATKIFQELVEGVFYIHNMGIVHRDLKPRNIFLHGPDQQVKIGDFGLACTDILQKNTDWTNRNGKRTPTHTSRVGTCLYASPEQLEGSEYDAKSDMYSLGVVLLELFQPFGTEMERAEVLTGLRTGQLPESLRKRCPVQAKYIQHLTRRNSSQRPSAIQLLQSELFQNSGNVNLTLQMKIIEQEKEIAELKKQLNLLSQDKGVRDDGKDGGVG
UniProt P07332, whole entry: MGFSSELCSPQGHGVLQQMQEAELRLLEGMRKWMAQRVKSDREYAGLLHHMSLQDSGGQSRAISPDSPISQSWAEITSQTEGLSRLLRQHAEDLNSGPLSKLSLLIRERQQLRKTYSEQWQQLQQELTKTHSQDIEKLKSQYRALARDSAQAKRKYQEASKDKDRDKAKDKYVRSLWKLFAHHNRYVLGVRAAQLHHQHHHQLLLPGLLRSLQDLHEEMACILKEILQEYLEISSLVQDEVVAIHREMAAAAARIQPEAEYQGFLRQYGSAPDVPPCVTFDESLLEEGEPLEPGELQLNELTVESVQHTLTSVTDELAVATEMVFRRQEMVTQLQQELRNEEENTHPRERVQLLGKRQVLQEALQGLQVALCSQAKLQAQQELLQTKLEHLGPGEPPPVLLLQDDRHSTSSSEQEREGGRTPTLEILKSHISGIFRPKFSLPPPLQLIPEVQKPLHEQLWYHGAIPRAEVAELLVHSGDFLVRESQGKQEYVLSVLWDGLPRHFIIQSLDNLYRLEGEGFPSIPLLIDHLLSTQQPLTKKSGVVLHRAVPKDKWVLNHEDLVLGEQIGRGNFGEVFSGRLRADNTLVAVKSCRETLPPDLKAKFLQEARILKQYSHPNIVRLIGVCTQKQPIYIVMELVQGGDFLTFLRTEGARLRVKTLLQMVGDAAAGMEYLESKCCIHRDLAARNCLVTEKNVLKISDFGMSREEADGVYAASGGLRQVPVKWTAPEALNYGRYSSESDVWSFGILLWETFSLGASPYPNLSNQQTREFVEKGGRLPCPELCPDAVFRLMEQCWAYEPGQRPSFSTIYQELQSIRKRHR
UniProt P08631, whole entry: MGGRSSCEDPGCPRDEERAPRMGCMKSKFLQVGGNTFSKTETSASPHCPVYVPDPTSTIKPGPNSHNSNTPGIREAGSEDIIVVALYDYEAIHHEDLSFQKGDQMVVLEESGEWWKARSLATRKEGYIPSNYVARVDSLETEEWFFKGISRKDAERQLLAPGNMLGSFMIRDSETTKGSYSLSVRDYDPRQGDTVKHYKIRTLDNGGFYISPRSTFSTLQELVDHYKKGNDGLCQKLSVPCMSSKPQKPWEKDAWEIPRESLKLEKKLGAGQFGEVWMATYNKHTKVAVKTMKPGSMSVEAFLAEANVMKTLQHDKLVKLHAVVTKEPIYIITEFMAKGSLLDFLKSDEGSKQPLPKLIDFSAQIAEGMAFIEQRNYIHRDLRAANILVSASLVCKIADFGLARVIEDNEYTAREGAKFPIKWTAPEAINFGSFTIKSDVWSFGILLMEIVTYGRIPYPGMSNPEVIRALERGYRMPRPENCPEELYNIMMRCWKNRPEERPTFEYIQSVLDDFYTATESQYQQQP
UniProt P05771, whole entry: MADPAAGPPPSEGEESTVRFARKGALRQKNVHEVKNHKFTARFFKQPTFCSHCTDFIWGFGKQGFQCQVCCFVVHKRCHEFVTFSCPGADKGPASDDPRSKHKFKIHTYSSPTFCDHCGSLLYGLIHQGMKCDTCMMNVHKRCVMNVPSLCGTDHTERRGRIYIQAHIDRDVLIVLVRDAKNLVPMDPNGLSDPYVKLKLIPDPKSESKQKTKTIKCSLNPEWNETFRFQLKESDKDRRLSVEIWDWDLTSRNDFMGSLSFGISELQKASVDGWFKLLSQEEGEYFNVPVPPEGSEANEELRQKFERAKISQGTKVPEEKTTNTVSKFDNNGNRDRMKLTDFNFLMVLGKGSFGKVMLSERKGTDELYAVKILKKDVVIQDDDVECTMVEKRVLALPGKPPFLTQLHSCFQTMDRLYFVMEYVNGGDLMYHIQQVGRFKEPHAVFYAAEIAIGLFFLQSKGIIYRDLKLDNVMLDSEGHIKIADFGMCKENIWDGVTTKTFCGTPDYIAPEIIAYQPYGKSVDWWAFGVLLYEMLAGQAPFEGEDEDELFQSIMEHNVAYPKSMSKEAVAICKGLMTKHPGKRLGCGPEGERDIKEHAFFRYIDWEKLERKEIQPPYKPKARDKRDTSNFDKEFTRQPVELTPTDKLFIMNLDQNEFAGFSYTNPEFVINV
UniProt O94804, whole entry: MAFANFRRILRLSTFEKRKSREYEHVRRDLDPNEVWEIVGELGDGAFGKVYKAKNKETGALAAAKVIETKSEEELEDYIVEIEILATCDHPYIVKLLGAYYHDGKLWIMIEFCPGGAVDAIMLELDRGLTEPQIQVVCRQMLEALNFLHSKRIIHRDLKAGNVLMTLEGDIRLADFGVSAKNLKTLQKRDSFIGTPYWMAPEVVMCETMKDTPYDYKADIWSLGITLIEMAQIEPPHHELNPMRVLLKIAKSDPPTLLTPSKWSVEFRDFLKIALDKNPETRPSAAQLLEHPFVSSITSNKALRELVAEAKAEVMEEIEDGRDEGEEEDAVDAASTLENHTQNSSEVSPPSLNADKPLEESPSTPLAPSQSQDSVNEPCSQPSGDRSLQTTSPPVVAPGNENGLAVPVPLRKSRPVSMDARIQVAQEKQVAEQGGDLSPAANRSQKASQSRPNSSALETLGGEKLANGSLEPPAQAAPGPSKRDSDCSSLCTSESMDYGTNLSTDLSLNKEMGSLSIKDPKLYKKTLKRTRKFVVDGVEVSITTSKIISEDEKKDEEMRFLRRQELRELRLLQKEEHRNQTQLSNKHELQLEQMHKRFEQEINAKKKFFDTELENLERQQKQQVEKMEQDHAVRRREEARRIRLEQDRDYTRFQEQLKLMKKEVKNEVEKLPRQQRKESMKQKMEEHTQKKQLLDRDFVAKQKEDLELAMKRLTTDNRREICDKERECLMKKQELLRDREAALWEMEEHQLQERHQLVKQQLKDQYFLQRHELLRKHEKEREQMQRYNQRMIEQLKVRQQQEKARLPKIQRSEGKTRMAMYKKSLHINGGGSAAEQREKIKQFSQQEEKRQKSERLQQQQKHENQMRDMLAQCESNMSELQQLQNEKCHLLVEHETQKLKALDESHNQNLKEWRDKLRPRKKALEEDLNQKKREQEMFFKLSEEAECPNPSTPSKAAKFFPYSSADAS
UniProt Q96S44, whole entry: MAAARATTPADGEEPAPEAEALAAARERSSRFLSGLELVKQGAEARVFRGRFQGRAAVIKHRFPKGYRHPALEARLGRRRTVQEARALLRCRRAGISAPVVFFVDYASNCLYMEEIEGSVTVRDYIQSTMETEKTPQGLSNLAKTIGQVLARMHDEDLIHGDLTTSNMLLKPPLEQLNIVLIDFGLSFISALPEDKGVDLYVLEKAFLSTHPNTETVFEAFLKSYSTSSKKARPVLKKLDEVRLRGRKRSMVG
UniProt P29597, whole entry: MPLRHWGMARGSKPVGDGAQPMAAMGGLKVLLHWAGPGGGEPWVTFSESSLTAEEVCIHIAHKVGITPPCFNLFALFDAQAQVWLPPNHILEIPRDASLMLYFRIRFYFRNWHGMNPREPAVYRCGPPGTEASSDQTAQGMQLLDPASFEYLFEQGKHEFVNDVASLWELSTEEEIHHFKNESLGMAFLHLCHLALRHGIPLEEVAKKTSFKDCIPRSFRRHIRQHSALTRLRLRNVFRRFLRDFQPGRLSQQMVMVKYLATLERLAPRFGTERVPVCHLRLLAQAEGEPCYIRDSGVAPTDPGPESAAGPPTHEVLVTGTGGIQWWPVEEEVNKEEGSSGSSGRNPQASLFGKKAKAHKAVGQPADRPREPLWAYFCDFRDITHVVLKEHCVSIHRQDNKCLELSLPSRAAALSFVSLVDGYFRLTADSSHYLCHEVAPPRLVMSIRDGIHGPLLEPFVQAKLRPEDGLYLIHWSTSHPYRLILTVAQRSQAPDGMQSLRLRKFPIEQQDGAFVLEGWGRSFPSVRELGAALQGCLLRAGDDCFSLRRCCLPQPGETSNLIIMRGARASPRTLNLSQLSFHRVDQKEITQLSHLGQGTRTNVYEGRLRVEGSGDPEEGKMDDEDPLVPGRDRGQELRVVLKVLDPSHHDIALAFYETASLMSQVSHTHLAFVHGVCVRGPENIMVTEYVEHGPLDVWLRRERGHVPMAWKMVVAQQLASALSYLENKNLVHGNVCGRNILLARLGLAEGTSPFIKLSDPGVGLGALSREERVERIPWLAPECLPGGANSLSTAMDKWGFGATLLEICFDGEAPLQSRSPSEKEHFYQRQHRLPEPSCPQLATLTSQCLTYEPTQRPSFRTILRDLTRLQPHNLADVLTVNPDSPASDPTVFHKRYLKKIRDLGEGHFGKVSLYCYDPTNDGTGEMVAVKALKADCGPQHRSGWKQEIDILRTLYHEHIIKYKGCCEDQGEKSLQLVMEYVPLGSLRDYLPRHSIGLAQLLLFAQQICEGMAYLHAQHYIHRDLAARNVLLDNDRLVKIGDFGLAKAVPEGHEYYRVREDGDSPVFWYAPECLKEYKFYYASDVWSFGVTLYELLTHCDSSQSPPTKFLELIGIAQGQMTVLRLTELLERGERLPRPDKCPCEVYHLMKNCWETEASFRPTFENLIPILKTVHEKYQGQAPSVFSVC

Assays:
Test in all cases: KAT chemical proteomics
BUB1 = BUB1 (Homo sapiens, UniProt O43683)
CAB39 = test system: CAB39
CAMK4 = CAMK4 (Homo sapiens, UniProt Q16566)
CDC42BPG = CDC42BPG (Homo sapiens, UniProt Q6DT37)
CDK17 = CDK17 (Homo sapiens, UniProt Q00537)
CDK18 = CDK18 (Homo sapiens, UniProt Q07002)
CDK9 = CDK9 (Homo sapiens, UniProt P50750)
DAPK3 = DAPK3 (Homo sapiens, UniProt O43293)
DCK = DCK (Homo sapiens, UniProt P27707)
DDR2 = DDR2 (Homo sapiens, UniProt Q16832)
DYRK2 = DYRK2 (Homo sapiens, UniProt Q92630)
EIF2AK1 = EIF2AK1 (Homo sapiens, UniProt Q9BQI3)
EPHA4 = EPHA4 (Homo sapiens, UniProt P54764)
EPHB4 = EPHB4 (Homo sapiens, UniProt P54760)
FAM20B = FAM20B (Homo sapiens, UniProt O75063)
FES = FES (Homo sapiens, UniProt P07332)
FN3KRP = FN3KRP (Homo sapiens, UniProt Q9HA64)
FRK = FRK (Homo sapiens, UniProt P42685)
FYN = FYN (Homo sapiens, UniProt P06241)
GPR108 = test system: GPR108
HCK = HCK (Homo sapiens, UniProt P08631)
JAK2 = JAK2 (Homo sapiens, UniProt O60674)
LATS1 = LATS1 (Homo sapiens, UniProt O95835)
LIMK1 = LIMK1 (Homo sapiens, UniProt P53667)
MAP3K1 = MAP3K1 (Homo sapiens, UniProt Q13233)
MAP3K11 = MAP3K11 (Homo sapiens, UniProt Q16584)
MYLK3 = MYLK3 (Homo sapiens, UniProt Q32MK0)
PAK6 = PAK6 (Homo sapiens, UniProt Q9NQU5)
PASK = PASK (Homo sapiens, UniProt Q96RG2)
PIKFYVE = PIKFYVE (Homo sapiens, UniProt Q9Y2I7)
PIM3 = PIM3 (Homo sapiens, UniProt Q86V86)
PRKAB2 = test system: PRKAB2
PRKCB = PRKCB (Homo sapiens, UniProt P05771)
PRKCE = PRKCE (Homo sapiens, UniProt Q02156)
PTK6 = PTK6 (Homo sapiens, UniProt Q13882)
RIOK1 = RIOK1 (Homo sapiens, UniProt Q9BRS2)
STK10 = STK10 (Homo sapiens, UniProt O94804)
STK36 = STK36 (Homo sapiens, UniProt Q9NRP7)
TP53RK = TP53RK (Homo sapiens, UniProt Q96S44)
TYK2 = TYK2 (Homo sapiens, UniProt P29597)
bRAF = bRAF (Homo sapiens, UniProt P15056)

`Cc1nc(C(F)(F)F)c2c(C(N)=O)c(N)n(-c3c(C)ccc(O)c3C)c2n1` (single isomer, unassigned) showed an RB50 (BUB1) greater than 50 µM, an RB50 (CAB39) greater than 50 µM and an RB50 (CAMK4) greater than 50 µM. The RB50 (CDC42BPG) was greater than 50 µM, the RB50 (CDK17) was greater than 50 µM and the RB50 (CDK18) was greater than 50 µM. The RB50 (CDK9) was greater than 50 µM, the RB50 (DAPK3) was greater than 50 µM and the RB50 (DCK) was greater than 50 µM. The RB50 (DDR2) was greater than 50 µM, the RB50 (DYRK2) was greater than 50 µM and the RB50 (EIF2AK1) was greater than 50 µM. The RB50 (EPHA4) was 324 nM, the RB50 (EPHB4) was 173 nM and the RB50 (FAM20B) was greater than 50 µM. It also gave an RB50 (FES) greater than 50 µM, an RB50 (FN3KRP) greater than 50 µM and an RB50 (FRK) of 245 nM. For the same compound, the RB50 (FYN) was 210 nM, the RB50 (GPR108) was greater than 50 µM and the RB50 (HCK) was greater than 50 µM. For the same compound, the RB50 (JAK2) was greater than 50 µM, the RB50 (LATS1) was greater than 50 µM and the RB50 (LIMK1) was greater than 50 µM. It also gave an RB50 (MAP3K1) greater than 50 µM, an RB50 (MAP3K11) greater than 50 µM and an RB50 (MYLK3) greater than 50 µM. For the same compound, the RB50 (PAK6) was greater than 50 µM, the RB50 (PASK) was greater than 50 µM and the RB50 (PIKFYVE) was greater than 50 µM. It also gave an RB50 (PIM3) greater than 50 µM, an RB50 (PRKAB2) greater than 50 µM and an RB50 (PRKCB) greater than 50 µM. It also gave an RB50 (PRKCE) greater than 50 µM, an RB50 (PTK6) of 278 nM and an RB50 (RIOK1) greater than 50 µM. It also gave an RB50 (STK10) greater than 50 µM, an RB50 (STK36) greater than 50 µM and an RB50 (TP53RK) greater than 50 µM. It also gave an RB50 (TYK2) greater than 50 µM and an RB50 (bRAF) of 2.74 µM.
